Chains of the proteins cited; added tags and fusions are not shown. Residues count along the entry.
UniProt Q9NYK1, 27-1049 limits assumed: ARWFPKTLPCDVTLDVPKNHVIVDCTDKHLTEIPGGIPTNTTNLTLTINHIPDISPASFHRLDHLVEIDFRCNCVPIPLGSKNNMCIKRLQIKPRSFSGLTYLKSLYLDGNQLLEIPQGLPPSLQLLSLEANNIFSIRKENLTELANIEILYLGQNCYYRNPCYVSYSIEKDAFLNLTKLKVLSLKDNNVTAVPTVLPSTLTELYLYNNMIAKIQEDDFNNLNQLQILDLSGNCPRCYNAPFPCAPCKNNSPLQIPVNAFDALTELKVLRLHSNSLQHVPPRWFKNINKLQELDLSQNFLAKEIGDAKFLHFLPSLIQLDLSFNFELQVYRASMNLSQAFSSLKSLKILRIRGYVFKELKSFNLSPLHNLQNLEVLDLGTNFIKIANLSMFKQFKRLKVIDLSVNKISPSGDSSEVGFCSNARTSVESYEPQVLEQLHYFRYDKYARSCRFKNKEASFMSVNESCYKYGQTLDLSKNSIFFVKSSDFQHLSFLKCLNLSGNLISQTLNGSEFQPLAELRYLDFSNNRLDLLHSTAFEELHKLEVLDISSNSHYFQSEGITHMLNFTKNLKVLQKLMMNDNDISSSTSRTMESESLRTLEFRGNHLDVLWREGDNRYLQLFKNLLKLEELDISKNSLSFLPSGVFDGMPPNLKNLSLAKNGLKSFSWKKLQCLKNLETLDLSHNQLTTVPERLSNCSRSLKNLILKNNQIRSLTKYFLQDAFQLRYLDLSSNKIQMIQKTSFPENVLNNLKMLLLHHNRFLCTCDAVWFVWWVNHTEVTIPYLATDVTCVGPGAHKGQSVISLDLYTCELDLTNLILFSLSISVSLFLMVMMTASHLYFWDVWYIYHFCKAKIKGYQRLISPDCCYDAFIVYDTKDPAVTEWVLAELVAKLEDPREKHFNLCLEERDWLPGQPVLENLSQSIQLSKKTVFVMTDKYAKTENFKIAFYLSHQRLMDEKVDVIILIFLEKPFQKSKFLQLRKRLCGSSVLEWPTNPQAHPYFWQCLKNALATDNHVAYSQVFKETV

In US20230144824A1, “1H-PYRAZOLO[4,3-d]PYRIMIDINE COMPOUNDS AS TOLL-LIKE RECEPTOR 7 (TLR7) AGONISTS” (BRISTOL-MYERS SQUIBB COMPANY, priority 2020, published 2023):

Molecular target: human TLR7 (Homo sapiens, UniProt Q9NYK1)
Test: Human TLR7 agonist activity assay (HEK-Blue TLR7 SEAP reporter)
Details: read-out: hTLR7 Agonism EC50, HEK-Blue TLR7 cells, 18 h treatment, average where assay performed multiple times
Method: This procedure describes a method for assaying human TLR7 (hTLR7) agonist activity of the compounds disclosed in this specification.
HEK-Blue™ TLR7 cells were added to each well of a 384-well tissue-culture plate (15,000 cells per well) and incubated 16-18 h at 37° C., 5% CO2. Compounds (100 nl) were dispensed into wells containing the HEK-Blue™ TLR cells and the treated cells were incubated at 37° C., 5% CO2. After 18 h treatment ten microliters of freshly-prepared Quanti-Blue™ reagent (Invivogen) was added to each well, incubated for 30 min (37° C., 5% CO2) and SEAP levels measured using an Envision plate reader (OD=620 nm). The half maximal effective concentration values (EC50; compound concentration which induced a response halfway between the assay baseline and maximum) were calculated.

EC50: 28.1 nM
SMILES: CCC[C@@H](CCO)Nc1nc(N)nc2cnn(Cc3ncc(C4CCN(Cc5nc(C)no5)CC4)cc3OC)c12
